Measurements from patent US20060165603A1, “Solubilisation of drugs in hfa propellant by means of emulsions” (Chiesi Farmaceutici S.p.A., priority 2002, published 2006).

Experiment: Photon Correlation Spectroscopy (PCS) microemulsion particle size
Type: physicochemical
Settings: L64 10%, EtOH 20%, water 5%, salbutamol sulphate 25 μg/dose (per 50 μl metering volume)
Experimental: For the microemulsions, the samples have been characterised by dynamic light scattering also known as Photon Correlation Spectroscopy to detect the presence of the droplets of the internal phase. Formulation metering performance was evaluated by determining the emitted dose and drug delivery performance was evaluated via Anderson Cascade Impaction (ACI) measurements according to the method described in Apparatus 2, EP 3rd Edition 1999 supplement, section 2.9.18, Aerosol assessment of fine particles.
Photon Correlation Spectroscopy (PCS) characterization of the Synerionic L64 based microemulsions was carried out and the results are shown in Table 4.

salbutamol sulphate
Microemulsion particle size: 10.0 nm
